# Apparent affinities of Ab-14 variants for a coronavirus HR2 peptide

Target peptide (SARS-CoV-2 spike, HR2 region): PDVDLGDISGINAS

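The variants were designed computationally from a first round of random CDR variants and then made and measured. Several design methods are mixed in this list. The assay is AlphaSeq: two haploid yeast populations carry antibody and antigen on their surface. Mating (16 h, 30 °C) was followed by selection of diploids and sequencing of their barcodes. Read counts were normalised to the haploid input and turned into Kd by a linear fit to BCL2-family pairs of known affinity, for each replicate. Each pool was mated in six replicate cultures.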

Parent scFv Ab-14: VH joined to VL by a 15-residue (Gly4Ser)3 linker. Changes lie in the light chain CDRs alone.
VH: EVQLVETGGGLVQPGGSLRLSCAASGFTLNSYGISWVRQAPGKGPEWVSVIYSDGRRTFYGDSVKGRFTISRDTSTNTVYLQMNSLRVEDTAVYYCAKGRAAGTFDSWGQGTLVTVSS
VL: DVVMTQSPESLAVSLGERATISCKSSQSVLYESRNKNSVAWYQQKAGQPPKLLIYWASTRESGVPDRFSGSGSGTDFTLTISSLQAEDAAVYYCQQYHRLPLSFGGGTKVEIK

Variants are written as CDR1, CDR2 and CDR3 of the light chain (limits as in the source). Parent: KSSQSVLYESRNKNSVA, WASTRES, QQYHRLPLS. Values are log10 of the apparent Kd in nM; lower means stronger binding. The mean shown is taken over the replicates in which the pair was detected. "no signal" marks a missing value. The strain was present, yet no cells mated with the target were sequenced in any replicate, which points to weak or no binding. A sequence measured in both rounds can read differently, since the two assays cover different ranges. In the paper, a design with two or fewer of six values counts as a poor binder. The parent sequence was in this pool as ten entries: three were never detected, three once, and four in most replicates, with averages from 0.34 to 2.37. Background: pairings of all light chain designs with three empty control strains gave a value in 4% of cases (median 2.64, 5th percentile 1.59). Values in that range, when seen in few replicates, are hard to tell from nonspecific mating.

"log10 Kd (nM), mean",detected,CDR-L1,CDR-L2,CDR-L3
2.61,3/6,IIDQLMFWGLKKANSIA,QASLRVN,QQYHHLPLT
0.34,6/6,KLSTSVLYGKRNKNSVA,QASQRES,QQYHRLPLS
1.82,6/6,KSSYSVLYESDNKNSVA,WASTRES,QQYHRLPLS
1.26,6/6,KLRQLMHIESFNKNNVA,EMTTREN,QSYDRLPLS
0.51,5/6,ALALTGHQVDSQMQNIA,DGMLRES,QQYNRLPLT
0.67,6/6,KMSQSVLYESRNKNSVA,RASTRES,QQYHRLPLS
no signal,0/6,KLSQSFLYESRNKNSVA,GASTRES,QNYHRLTLS
0.36,6/6,KLSQSVGYESRLKNNVA,NASTRLE,QQYHRLPLS
-0.22,6/6,KLQQSDLYESRNKNSVA,SASTRES,QQYHRLPLS
0.33,6/6,KVSQSVWYESRNKNSVA,EASTRES,QQYHRLPLS
0.78,6/6,RVRNEMGKEMERKQSVA,ETEQRCM,QQYARLPLI
0.48,6/6,KLSQSHLYESSNKNSVA,WASTRES,QQYHRLPLS
0.35,6/6,QLEVFPLQAGSTYQAIA,DASHRTP,QQYSRLPLV
-0.14,6/6,ALGDVMRMEHNKKNSIA,DMSTRES,QQYHRLPLS
0.23,6/6,KISYMGEYFSTNHSAIA,QASTREQ,QQYHRLPLA
0.58,6/6,TISQSFLMENQFKNSVA,QASTRLS,QCYDRLPLS
-0.31,6/6,KFEQQWLYESRNVNSVA,NASTRSQ,QQYHRLPLS
0.32,6/6,QINLQGLSAALNNRNVA,AKNLRVD,QQYNRLPLS
0.97,6/6,MVSQLMLWGMHVKNSIA,EAVTRLN,QQYDRLPLF
0.52,6/6,KFSQSQPYESRMFNSVA,NASLRMS,QQYHRLPLS
2.36,2/6,KISQMVKVGATHANSIA,EMVTRAK,QQYHRLPLA
1.65,6/6,HISMVMGTKGYAKNSVA,NEETRED,QQYHRLPLS
1.78,6/6,KLSSYVGGESRNKSSLA,DNSTRES,QQYHRLPLS
1.70,5/6,TISQMWFVESKNKNNVA,EMTTREN,QDYDRLPLS
0.21,6/6,KLSMITGHMRMAKDNVA,EMVTREK,QQYNRLPLS
0.86,6/6,TISQLYNMGQFAINSVA,QASTRNE,QQYDRLPLM
0.23,6/6,KLTMITGLEKVTKNQVA,EMETREK,QQYNRLPLS
no signal,0/6,TVSQVHEMLSRNKNSVA,DMNTRES,QQYDRLPLS
-0.05,6/6,KLQQSHLYESRNKNSVA,NASTRES,QQYHRLPLS
-0.20,6/6,KVQQSMLYESRNKNSVA,NASTRES,QQYHRLPLS
0.08,6/6,KSSQSTLYESTNKNSVA,NASTRES,QQYHRLPLS
0.85,6/6,KVSEEVLMGDRNKNSVA,KASTRLS,QQYHRLPLS
1.10,1/6,KLSFSVLYESRNKNSVA,WASTRES,KQYHELPLS
0.17,6/6,KVVQSVLYESRNKNSVA,NASQRES,QQYHRLPLS
-0.49,6/6,KLEGQHLYESRNANSVA,NASTRMS,QQYKRLPLS
1.04,6/6,MISQLYNMGQFAINSVA,QASTRNQ,QQYDRLPLM
no signal,0/6,KSSQSVLTESRNKNSVA,WANTRET,QQYFRLPLS
0.23,6/6,TISNMWFLESKNKNNVA,EESTRED,QSYFRLPLS
1.68,6/6,KLYQSMGYLSHNKNSIA,DMSRREN,QQYHRLPLS
2.32,1/6,KVSEFMRGLMQRTDSIA,DNVTRGN,QQYDRLPLS
0.09,6/6,KLGQGVLYESRNKNSVA,GASLRES,QQYHRLPLS
no signal,0/6,HIMKFMSQIGGARNNVA,GDTKLAQ,QHYHRLPLS
0.11,6/6,KLGGVTSYEMQNKNSVA,QMTTREN,QQYHRLPLS
0.99,6/6,SLAYTQHFGQTQEKAIA,EVATREQ,QQYFRLPLG
0.73,6/6,KLRQLTHIESFNKNNVA,EMTTRES,QSYDRLPLS
2.48,3/6,KLSQSELYESRNKNSVA,DASTRES,YQYHRLPSS
1.69,3/6,YVSSQAAQDRNQQQSIA,GVDYREK,QQYYHLPLS
2.35,4/6,SIGLATPLEEKVRNSVA,NNSTRED,QQYDRLPLS
2.53,2/6,KSQQSVLYESRQFNSVA,WASTRES,QQYHRLPLS
2.35,5/6,SLAEAVHMESRNKNSVA,DNSTRES,QHYHRLPLS
0.69,6/6,KFQQSQLYESRNMNSVA,NASKRMS,QQYHRLPLK

4 of these entries, quoted again:

| CDR-L1 | CDR-L2 | CDR-L3 | log10 Kd (nM), mean | detected |
|---|---|---|---|---|
| TISQSFLMENQFKNSVA | QASTRLS | QCYDRLPLS | 0.58 | 6/6 |
| SIGLATPLEEKVRNSVA | NNSTRED | QQYDRLPLS | 2.35 | 4/6 |
| HISMVMGTKGYAKNSVA | NEETRED | QQYHRLPLS | 1.65 | 6/6 |
| RVRNEMGKEMERKQSVA | ETEQRCM | QQYARLPLI | 0.78 | 6/6 |

The measurements come from Li et al. 2023 (doi:10.1038/s41467-023-39022-2) through the FLAb antibody collection.